Test results: patent publication US20030207791A1, “Materials and methods relating to the treatment of leukaemias” (priority 2000, published 2003)

By UniProt entry, the sequences of proteins in these tests, tags left out.
UniProt P10276, whole entry: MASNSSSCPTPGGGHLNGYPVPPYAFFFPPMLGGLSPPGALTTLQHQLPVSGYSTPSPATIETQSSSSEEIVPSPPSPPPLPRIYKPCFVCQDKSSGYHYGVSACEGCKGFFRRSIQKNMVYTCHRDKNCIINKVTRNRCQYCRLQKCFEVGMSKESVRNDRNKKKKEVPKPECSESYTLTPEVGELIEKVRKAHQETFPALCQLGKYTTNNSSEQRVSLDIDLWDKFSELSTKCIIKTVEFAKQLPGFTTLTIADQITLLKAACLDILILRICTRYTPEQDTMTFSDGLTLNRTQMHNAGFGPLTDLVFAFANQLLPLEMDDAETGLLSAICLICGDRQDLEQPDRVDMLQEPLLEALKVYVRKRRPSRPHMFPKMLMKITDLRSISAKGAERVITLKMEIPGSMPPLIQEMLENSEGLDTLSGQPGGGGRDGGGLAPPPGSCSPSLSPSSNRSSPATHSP

Biological target: T1, p53-RAR (Homo sapiens, UniProt P10276)
T1 construct: fused on or other part: The p53 tetramerization domain sits N-terminal to whole RAR alpha; It is counted as the second part of the chimera
Experiment: RA sensitivity of transcriptional repression, RARE-containing reporter
Format: cell-based
Details: repression by p53-RAR on a RARE-containing reporter

relief of transcriptional repression by RAR ligand: identical results
SMILES: CC1=C(/C=C/C(C)=C\C=C\C(C)=C\C(=O)O)C(C)(C)CCC1 [9-cis-RA]
